Measured values as given in ChEMBL document CHEMBL5143607, “Discovery and structure-activity relationships of a novel oxazolidinone class of bacterial type II topoisomerase inhibitors” (Bioorg Med Chem Lett, 2022).

Chains of the proteins cited; added tags and fusions are not shown.
UniProt Q12809, whole entry: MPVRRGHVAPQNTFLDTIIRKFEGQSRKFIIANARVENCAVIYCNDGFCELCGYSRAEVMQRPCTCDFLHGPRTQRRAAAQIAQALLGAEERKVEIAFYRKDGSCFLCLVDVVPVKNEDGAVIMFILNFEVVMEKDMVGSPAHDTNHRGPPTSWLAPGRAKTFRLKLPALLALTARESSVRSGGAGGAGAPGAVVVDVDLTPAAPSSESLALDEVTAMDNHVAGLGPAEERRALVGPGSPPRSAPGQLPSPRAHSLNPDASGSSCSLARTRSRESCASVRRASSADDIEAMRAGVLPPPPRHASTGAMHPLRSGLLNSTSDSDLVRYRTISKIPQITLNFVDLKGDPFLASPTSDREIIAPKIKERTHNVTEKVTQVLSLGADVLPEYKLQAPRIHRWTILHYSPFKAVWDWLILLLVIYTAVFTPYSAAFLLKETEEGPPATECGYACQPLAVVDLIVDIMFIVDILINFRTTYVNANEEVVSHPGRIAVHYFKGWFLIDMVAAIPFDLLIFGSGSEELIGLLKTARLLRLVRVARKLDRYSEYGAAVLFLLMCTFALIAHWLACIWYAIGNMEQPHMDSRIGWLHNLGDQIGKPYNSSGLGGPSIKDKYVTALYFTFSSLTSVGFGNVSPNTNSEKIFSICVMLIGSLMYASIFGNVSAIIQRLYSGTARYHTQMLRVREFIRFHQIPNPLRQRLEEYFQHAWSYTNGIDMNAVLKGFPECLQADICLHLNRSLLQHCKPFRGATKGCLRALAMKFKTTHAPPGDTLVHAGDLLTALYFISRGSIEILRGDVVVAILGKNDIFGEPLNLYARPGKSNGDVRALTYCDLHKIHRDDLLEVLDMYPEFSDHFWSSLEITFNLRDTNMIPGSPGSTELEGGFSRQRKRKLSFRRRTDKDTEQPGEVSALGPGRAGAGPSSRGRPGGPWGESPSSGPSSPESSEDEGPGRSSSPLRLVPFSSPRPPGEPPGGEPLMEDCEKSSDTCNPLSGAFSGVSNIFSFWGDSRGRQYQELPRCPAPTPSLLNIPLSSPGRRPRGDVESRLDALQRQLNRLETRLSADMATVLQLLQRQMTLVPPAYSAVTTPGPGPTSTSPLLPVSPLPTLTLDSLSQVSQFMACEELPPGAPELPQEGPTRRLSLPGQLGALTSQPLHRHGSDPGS

Tests used:
HepG2 = assay: Cytotoxicity against human HepG2 cells assessed as reduction in cell viability for 24 hrs by Celltiter-Glo assay
[1] = molecular target: Voltage-gated inwardly rectifying potassium channel KCNH2 (Homo sapiens, UniProt Q12809); assay: Inhibition of human ERG at 100 uM by Ionworks electrophysiology assay; type: toxicity
[2] = Protein binding in human plasma by equilibrium dialysis assay; type: ADME, cell-free
[3] = Lipophilicity, logD of the compound by shake flask assay; type: physicochemical; settings: octanol/water
[4] = Protein binding in mouse plasma by equilibrium dialysis assay; type: ADME, cell-free

Row | SMILES | IC50 (HepG2) | inhibition (INH) [1] | PPB [2] | logD [3] | PPB [4]
1 | COc1ccc2ccc(=O)n(CCN3CC[C@H]4[C@H](C3)OC(=O)N4c3ccc4c(n3)NC(=O)CO4)c2n1 | > 16 µg/mL | 96% | 1.6% | 2.8 | 
2 | COc1ccc2ccc(=O)n(CCN3CC[C@@H]4[C@H](C3)OC(=O)N4c3ccc4c(n3)NC(=O)CO4)c2n1 |  | 92% | 1.6% | 2.6 | 6.2%

This is a selection: effects in other tests are not listed, and their absence says nothing.
